Measurements from patent US8614182B2, “GLP-1 analogues and their pharmaceutical salts and uses” (Jiangsu Hansoh Pharmaceuticals Co., Ltd., priority 2009, dated 2013).
One block for each compound: values may come before it.

Protein sequences, listed by entry. Tags and fused reporters are not part of them. Residues count along the entry.
UniProt P43220, 24-463, species assumed: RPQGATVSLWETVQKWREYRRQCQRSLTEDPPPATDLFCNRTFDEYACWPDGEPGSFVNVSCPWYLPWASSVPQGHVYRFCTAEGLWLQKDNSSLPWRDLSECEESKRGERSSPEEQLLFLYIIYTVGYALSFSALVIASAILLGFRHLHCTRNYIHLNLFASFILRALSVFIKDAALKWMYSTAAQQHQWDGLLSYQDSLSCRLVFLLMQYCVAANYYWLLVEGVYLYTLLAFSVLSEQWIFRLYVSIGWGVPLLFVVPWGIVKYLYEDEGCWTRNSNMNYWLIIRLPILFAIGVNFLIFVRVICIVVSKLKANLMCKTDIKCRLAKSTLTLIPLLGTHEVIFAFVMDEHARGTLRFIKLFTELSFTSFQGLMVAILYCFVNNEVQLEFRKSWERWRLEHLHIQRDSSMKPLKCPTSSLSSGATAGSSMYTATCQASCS

Tests used:
[1] = target: T1, Glucagon-like peptide-1 receptor (GLP1R) (Homo sapiens, UniProt P43220); assay: Agonist activity on GLP1R, cAMP response element luciferase reporter gene in HEK293 cells; format: cell-based; conditions: HEK293 cells stably transfected with GLP1R and pCRE-Luc, 5 hours incubation; read-out: Maximum reaction rate
T1 construct: expressed in transfected cells; host or cells: HEK293
Excerpt: GLP1R is a receptor coupled with Gs protein, of which the binding with the agonists will result in an increase of intracellular cAMP concentration. In the present experiment, GLP1R and the luciferase reporter gene plasmid regulated by cAMP response elements are co-transfected into HEK293 cells. When the compound binds to the receptor and activates the receptors, the expression of the luciferase will increase. The activation status of the compound to GLP1R can be learned by testing the activity of the luciferase.
2. The compounds or positive drugs having a certain concentration gradient were added (3 wells per concentration) and incubated at 37° C. for 5 hours. The negative control was solvent DMSO.
3. 50 μl culture medium was taken from each well, and 50 μl of the luciferase substrate were added and vortexed for 10 minutes.
4. 80 μl reaction solution was taken and transferred to a white 96 well plate, then detected on the Invision microplate reader (enzyme-labelling measuring instrument).

[2] = tested on: db/db mice with type 2 diabetes; assay: Random blood glucose of db/db mice after single subcutaneous injection; format: in vivo; conditions: for random blood glucose: n = 8; for decrease rate of random blood glucose: versus control group; for random blood glucose level (words, test conclusions): single s.c., dose of 3 μg/kg (so in the source)
Protocol: db/db mice with type 2 diabetes were divided into six groups based on a random blood glucose and body weight (8 per group). […] The random blood glucose of the mice is determined at differete time after administration.
Preparation method: 1 bottle of the compound (2 mg/bottle) was dissolved with double-distilled water to prepare a colorless and transparent solution of which the concentration is 2 mg/mL. […] “ACCU-CHEK® Advantage” blood glucose meter form Roche was used to determine the blood glucose.
Route and volume of administration: Single subcutaneous injection dose, dose volume was 5 mL/kg. […]
The random blood glucoses of db/db mice were measured.
Each group has 8 mice, half male and half female. The animals of each group were administered with the test compounds or solvent control respectively through single subcutaneous injection.

[3] = 3 μg/kg single s.c., 1 h after administration, X ± s
[4] = 3 μg/kg single s.c., 1 h after administration
[5] = 3 μg/kg single s.c., 2 h after administration, X ± s
[6] = 3 μg/kg single s.c., 2 h after administration
[7] = 3 μg/kg single s.c., 4 h after administration, X ± s
[8] = 3 μg/kg single s.c., 4 h after administration
[9] = 3 μg/kg single s.c., 8 h after administration, X ± s
[10] = 3 μg/kg single s.c., 8 h after administration
[11] = 3 μg/kg single s.c., after 2 h and 4 h, P<0.05
[12] = 3 μg/kg single s.c., after 8 hours
[13] = 3 μg/kg single s.c., after one hour, P<0.05
[14] = 3 μg/kg single s.c., before administration, X ± s
[15] = 10 μg/kg single s.c., 1 h after administration
[16] = 10 μg/kg single s.c., 1 h after administration, ± s
[17] = 10 μg/kg single s.c., 2 h after administration
[18] = 10 μg/kg single s.c., 2 h after administration, ± s
[19] = 10 μg/kg single s.c., 4 h after administration
[20] = 10 μg/kg single s.c., 4 h after administration, ± s
[21] = 10 μg/kg single s.c., 8 h after administration
[22] = 10 μg/kg single s.c., 8 h after administration, ± s
[23] = 10 μg/kg single s.c., 24 h after administration
[24] = 10 μg/kg single s.c., 24 h after administration, ± s
[25] = 10 μg/kg single s.c., after 4 h and 8 h
[26] = 10 μg/kg single s.c., after 24 hours
[27] = 10 μg/kg single s.c., before administration, ± s
[28] = 10 μg/kg single s.c., time not specified

- Emax [1]: 87.4%
SMILES: CCCCCCCCCCCCCCCC(=O)N[C@@H](CCCCNC(=O)[C@H](CO)NC(=O)[C@@H]1CCCN1C(=O)[C@@H]1CCCN1C(=O)[C@@H]1CCCN1C(=O)CN(C)C(=O)CNC(=O)[C@H](CCCCN)NC(=O)[C@H](CCCCN)NC(=O)CNC(=O)[C@H](CCCNC(=N)N)NC(=O)CNC(=O)[C@H](CCCCN)NC(=O)[C@@H](NC(=O)[C@H](CC(C)C)NC(=O)[C@H](Cc1c[nH]c2ccccc12)NC(=O)[C@@H](NC(=O)[C@@H](NC(=O)[C@H](Cc1ccccc1)NC(=O)[C@H](CCC(=O)O)NC(=O)[C@H](C)NC(=O)[C@H](C)NC(=O)[C@H](CCC(N)=O)NC(=O)CNC(=O)[C@H](CCC(=O)O)NC(=O)[C@H](CC(C)C)NC(=O)[C@H](Cc1ccc(O)cc1)NC(=O)[C@H](CO)NC(=O)[C@H](CO)NC(=O)[C@@H](NC(=O)[C@H](CC(=O)O)NC(=O)[C@H](CO)NC(=O)[C@@H](NC(=O)[C@H](Cc1ccccc1)NC(=O)[C@@H](NC(=O)CNC(=O)[C@H](CCC(=O)O)NC(=O)[C@H](C)NC(=O)[C@@H](N)Cc1c[nH]cn1)[C@@H](C)O)[C@@H](C)O)C(C)C)[C@@H](C)CC)C(C)C)C(C)C)C(=O)O [HS-20006]
- random blood glucose [2, 3]: 20.36 ± 1.25 mmol/L
- decrease rate of random blood glucose [2, 4]: 14.25%
- decrease rate of random blood glucose ([2]; 3 μg/kg single s.c., 1 h after administration, listed as 20006): 14.25%
- random blood glucose [2, 5]: 19.91 ± 1.70 mmol/L
- decrease rate of random blood glucose [2, 6]: 13.12%
- random blood glucose [2, 7]: 19.58 ± 1.54 mmol/L
- decrease rate of random blood glucose [2, 8]: 10.86%
- random blood glucose [2, 9]: 24.30 ± 1.50 mmol/L
- decrease rate of random blood glucose [2, 10]: 8.14%
- random blood glucose values compared with those of the control group [2, 11]: kept a lower level and had significant difference
- random blood glucose values compared with those of the control group [2, 12]: no significant difference
- random blood glucose values compared with those of the control group [2, 13]: decreased significantly
- random blood glucose [2, 14]: 25.11 ± 1.49 mmol/L
- decrease rate of random blood glucose [2, 15]: 38.12%
- random blood glucose [2, 16]: 19.52 ± 1.72 mmol/L
- decrease rate of random blood glucose [2, 17]: 27.66%
- random blood glucose [2, 18]: 21.43 ± 1.49 mmol/L
- decrease rate of random blood glucose [2, 19]: 29.78%
- random blood glucose [2, 20]: 21.53 ± 1.67 mmol/L
- decrease rate of random blood glucose [2, 21]: 23.72%
- random blood glucose [2, 22]: 23.39 ± 1.55 mmol/L
- decrease rate of random blood glucose [2, 23]: 13.66%
- random blood glucose [2, 24]: 25.59 ± 1.74 mmol/L
- random blood glucose values compared with those of the control group [2, 25]: still kept at a lower level
- random blood glucose values compared with those of the control group [2, 26]: not significantly different
- random blood glucose [2, 27]: 23.54 ± 1.39 mmol/L
- random blood glucose values compared with those of the control group [2, 28]: decreased immediately and significantly
- random blood glucose level (words, test conclusions) [2]: decreased obviously

- Emax [1]: 88.5%
SMILES: CCCCCCCCCCCCCCCC(=O)N[C@@H](CCCCNC(=O)[C@H](CO)NC(=O)[C@@H]1CCCN1C(=O)[C@@H]1CCCN1C(=O)[C@@H]1CCCN1C(=O)CN(C)C(=O)CNC(=O)[C@H](CCCCN)NC(=O)[C@H](CCCCN)NC(=O)CNC(=O)[C@H](CCCNC(=N)N)NC(=O)CNC(=O)[C@H](CCCCN)NC(=O)[C@@H](NC(=O)[C@H](CC(C)C)NC(=O)[C@H](Cc1c[nH]c2ccccc12)NC(=O)[C@@H](NC(=O)[C@@H](NC(=O)[C@H](Cc1ccccc1)NC(=O)[C@H](CCC(=O)O)NC(=O)[C@H](C)NC(=O)[C@H](C)NC(=O)[C@H](CCC(N)=O)NC(=O)[C@H](CCC(=O)O)NC(=O)[C@H](CCC(=O)O)NC(=O)[C@H](CC(C)C)NC(=O)[C@H](Cc1ccc(O)cc1)NC(=O)[C@H](CO)NC(=O)[C@H](CO)NC(=O)[C@@H](NC(=O)[C@H](CC(=O)O)NC(=O)[C@H](CO)NC(=O)[C@@H](NC(=O)[C@H](Cc1ccccc1)NC(=O)[C@@H](NC(=O)CNC(=O)[C@H](CCC(=O)O)NC(=O)[C@H](C)NC(=O)[C@@H](N)Cc1c[nH]cn1)[C@@H](C)O)[C@@H](C)O)C(C)C)[C@@H](C)CC)C(C)C)C(C)C)C(=O)O [HS-20008]
- random blood glucose [2, 3]: 20.56 ± 1.30 mmol/L
- decrease rate of random blood glucose [2, 4]: 13.90%
- decrease rate of random blood glucose ([2]; 3 μg/kg single s.c., 1 h after administration, listed as 20008): 13.90%
- random blood glucose [2, 5]: 20.81 ± 1.70 mmol/L
- decrease rate of random blood glucose [2, 6]: 11.62%
- random blood glucose [2, 7]: 19.30 ± 2.02 mmol/L
- decrease rate of random blood glucose [2, 8]: 8.90%
- random blood glucose [2, 9]: 22.41 ± 1.51 mmol/L
- decrease rate of random blood glucose [2, 10]: 6.25%
- random blood glucose values compared with those of the control group [2, 11]: kept a lower level and had significant difference
- random blood glucose values compared with those of the control group [2, 12]: no significant difference
- random blood glucose values compared with those of the control group [2, 13]: decreased significantly
- random blood glucose [2, 14]: 25.11 ± 1.58 mmol/L
- decrease rate of random blood glucose [2, 15]: 35.49%
- random blood glucose [2, 16]: 19.38 ± 1.83 mmol/L
- decrease rate of random blood glucose [2, 17]: 25.79%
- random blood glucose [2, 18]: 21.61 ± 1.68 mmol/L
- decrease rate of random blood glucose [2, 19]: 27.33%
- random blood glucose [2, 20]: 21.72 ± 1.63 mmol/L
- decrease rate of random blood glucose [2, 21]: 22.57%
- random blood glucose [2, 22]: 23.56 ± 1.80 mmol/L
- decrease rate of random blood glucose [2, 23]: 14.58%
- random blood glucose [2, 24]: 25.72 ± 1.69 mmol/L
- random blood glucose values compared with those of the control group [2, 25]: still kept at a lower level
- random blood glucose values compared with those of the control group [2, 26]: not significantly different
- random blood glucose [2, 27]: 23.49 ± 1.49 mmol/L
- random blood glucose values compared with those of the control group [2, 28]: decreased immediately and significantly
- random blood glucose level (words, test conclusions) [2]: decreased obviously
